Here are results for 2 molecules from patent EP2729445B1, “CYCLIC AMINE DERIVATIVES AS EP4 RECEPTOR ANTAGONISTS” (Rottapharm Biotech S.r.l., priority 2011, dated 2013).

Chains of the proteins cited; added tags and fusions are not shown. Lines headed by an entry give the natural chain unless they say otherwise; changes in a name come on top.
UniProt P35408: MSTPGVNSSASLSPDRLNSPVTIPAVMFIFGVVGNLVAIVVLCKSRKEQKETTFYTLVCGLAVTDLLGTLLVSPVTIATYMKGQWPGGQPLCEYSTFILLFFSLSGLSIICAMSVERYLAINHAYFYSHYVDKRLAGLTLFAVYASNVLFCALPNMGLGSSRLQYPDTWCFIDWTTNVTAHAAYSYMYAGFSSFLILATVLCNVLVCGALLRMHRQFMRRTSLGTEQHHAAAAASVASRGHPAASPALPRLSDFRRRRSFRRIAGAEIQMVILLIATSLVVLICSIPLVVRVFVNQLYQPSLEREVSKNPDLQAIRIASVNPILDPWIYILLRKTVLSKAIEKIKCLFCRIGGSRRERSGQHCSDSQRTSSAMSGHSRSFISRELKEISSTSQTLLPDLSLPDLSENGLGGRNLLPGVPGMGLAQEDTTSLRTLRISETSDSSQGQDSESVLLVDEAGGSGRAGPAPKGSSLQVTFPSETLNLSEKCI

Assay [1] concerns the target T1, hEP4 receptors (Homo sapiens, UniProt P35408).
T1 construct: membrane fraction used
Kind of assay: [3H]-Prostaglandin E2 membrane binding assay. The following applies: human EP4/HEK293 transfectant membranes, 1nM [3H]-PGE2; Ki from IC50 by Cheng-Prousoff; pKi = -log10 Ki (M). The protocol:
(§1) The cDNA clone of human EP4 receptor (NM_000958.2) was obtained from InvitrogenTM: Ultimate™ ORF Clone Collection - Clone ID IOH46525. The coding sequence was subcloned in expression vector pcDNATM6.2/V5-DEST by Gateway technology (InvitrogenTM). Human embryonic kidney cells (HEK-293) were stably transfected with expression vector for human EP4 receptor in according to the method described in FuGENE®6 Transfection Reagent's manual (Roche Applied Science®).
(§2) The EP4 transfected cells were grown in Dulbecco's modified Eagle's medium containing 10% fetal bovine serum and 10 µg/ml Blasticidin S HCl (selection medium) at 37°C in a humidified atmosphere of 5% CO2 in air. […]
The membrane pellet was resuspended in the same buffer (5mM TRIS, 5mM ethylenediamine tetra-acetic acid (EDTA), pH 7.4), and protein concentration was determined by Bradford method (Bio-Bad® assay). […] Filters were washed with ice cold buffer pH 7.4 (50mM HEPES, NaCl 500mM, BSA 0.1% for EP4 binding assay or 50mM Tris-Cl for EP2 binding assays) and the residual [^3H]-PGE2 binding determined by solid scintillation counter (TopCount , PerkinElmer Inc).
The affinity (Ki) of each compound was calculated according to the Cheng-Prousoff equation: Ki = IC50/(1+([C]/Kd)). Results were expressed as pKi (- log10 Ki (M)

Assay [2] has as its target T1, hEP4 receptors. Kind of assay: cAMP assay (AlphaScreen) on human EP4 membrane of transfected cells, antagonism of PGE2. The settings on record: HEK293 cell membrane stimulated with PGE2 3nM; read-out: functional IC50. The assay is classed as biochemical. The protocol: as §1, §2
The assay is based on the competition between endogenous cAMP and exogenously added biotinylated cAMP. […] Cell membrane/anti-cAMP Acceptor beads mix (5 µl) and a mixture of analysed compounds (dissolved in 100% DMSO to a final maximal concentration of 0.01% DMSO)/PGE2 (5 µl) were incubated at room temperature (22-23°C) for 30 min in the dark. […] After 1 h incubation RT (22-23°C) in the dark the plate was read using EnVision platform to determine the cAMP level (excitation: 680nm; emission:520,620nm). […]
Antagonism studies were performed stimulating HEK293 cell membrane with PGE2 3nM. The AlphaScreen signal is plotted as a function of log concentration of cAMP and functional IC50 is determined. […]
On the technique in general: Cyclic AMP is a second messenger, typically raised through Gs and lowered through Gi signalling.

The Ki is the equilibrium dissociation constant of an inhibitor or competing ligand from its target. A low value points to higher affinity. In general, IC50 refers to the midpoint of a concentration-inhibition curve. `O=C(O)c1ccc(C2(NC(=O)C3CC(F)(F)CCN3Cc3cccc(C(F)(F)F)c3)CC2)cc1` (single isomer, unassigned) [Example E19, 4-(1-(4,4-difluoro-1-(3-(trifluoromethyl)benzyl)piperidine-2-carboxamido)cyclopropyl)benzoic acid] showed a Ki in assay [1] of 1.26e-09 M. Besides, the IC50 in assay [2] stood at 15 nM.

As for `O=C(O)c1ccc(C2(NC(=O)C3CC(F)(F)CCN3Cc3cccc(C(F)(F)F)c3)CC2)cc1` (single isomer, unassigned) [Example E20, 4-(1-(4,4-difluoro-1-(3-(trifluoromethyl)benzyl)piperidine-2-carboxamido)cyclopropyl)benzoic acid], the Ki in assay [1] was 6.31e-10 M. For the same molecule, the IC50 in assay [2] turned out to be 23 nM.
